These are literature values, as cited in patent US20080031887A1, “Conjugates for inducing targeted immune responses and methods of making and using same” (priority 2006, published 2008).

In this data set the test system is breast cancer. The note with it: breast cancer patients; cited from earlier work.

For the substance herceptin: anti-human-neu mAb, the tumor growth entry is “delays tumor growth”.
